Measurements as given in patent US10086010B2 (STC.UNM, priority 2014, dated 2018).

Test system: HT-29 cells
Test: WST-1 cell growth/viability assay, HT-29
Type: cell-based, human
Details: HT-29, 72 hours
Description: Indicated concentrations of drugs were added to wells one day after seeding. […] Cell proliferation was quantitated by measuring 450 nm absorbance and 600 nm as a background. All assays were performed in triplicate. […] The minimal combination index […] for each cell line was obtained from the isobologram parameters.

O=c1[nH]c(=O)n([C@H]2C[C@H](O)[C@@H](CO)O2)cc1F [5-FUdR, 5-fluoro-2′-deoxyuridine]
synergy with hmUdR: acted synergistically
